From patent US8414883B2, “Parvovirus cancer therapy and combination with chemotherapy” (priority 2007, dated 2013) come the findings set out here.

Each structure is given as a SMILES string.

Common to all, as to type: cell-based, human
In one assay the test system is BxPC3 cells. The assay is described as follows: MTT cytotoxicity of H-1PV, gemcitabine and their combination, BxPC3. On the procedure: (§1) Colo357, T3M-4, SU86.86, MiaPaCa-2, Panc-1 and BxPC-3 cells were cultured at a densitiy of 2×10^3 cells per well in 96-well plates, and treated with gemcitabine (0.4-4000 ng/ml), followed 24 h later by H-1PV (1, 10 or 100 RU/cell). Survival was measured using MTT assays performed 72 h after infection, in comparison with mock-treated cultures (100%), and is inversely expressed as cell death rate. The data presented are means from 3 independent experiments carried out in quadruplicates.
(§2) For cytotoxicity assessment, cells were seeded in 96-well plates at a density of 2×10^3 cells per well and treated as indicated in the Figure Legends. Cell viability was determined by the colorimetric MTT (3-(4,5-dimethylthiazolyl-2)-2,5-diphenyltetrazolium bromide) assay, as recommended by the manufacturer (Sigma, Deisenhofen, Germany).
(§3) Means and standard deviations (SD) were calculated from triplicate in vitro experiments. […] Combination (CI) and sensitization (SI) indices were calculated using the following equations: CI=(DH1.c/DH1.a)+(DG.c/DG.a)+(DH1.c*DG.c/DH1.a*DG.a); SIH-1PV=DH1.a/DH1.c; SIgem=DG.a/DG.c, where DH1.c, DH1.a, DG.c and DG.a are the respective EC50/75 doses of H-1PV or gemcitabine, alone (H1.a, G.a) or in combination (H1.c, G.c). […]

The next assay relates to Colo357 cells. The assay is described as follows: MTT cytotoxicity of H-1PV, gemcitabine and their combination, Colo357. The protocol: as §1, §2, §3
Another assay has as its system MiaPaCa-2 cells. The assay is described as follows: MTT cytotoxicity of H-1PV, gemcitabine and their combination, MiaPaCa-2. Particulars: EC75, H-1PV MOI 1. On the procedure: as §1, §2, §3
In a further assay the test system is Panc-1 cells. The experiment in a line: MTT cytotoxicity of H-1PV, gemcitabine and their combination, Panc-1. The protocol: as §1, §2, §3
For the next assay, the system named is SU86.86 cells. The assay is described as follows: MTT cytotoxicity of H-1PV, gemcitabine and their combination, SU86.86. The protocol:
as §1, §2, §3

A further assay relates to T3M-4 cells. The experiment in a line: MTT cytotoxicity of H-1PV, gemcitabine and their combination, T3M-4. On the procedure:
Survival was measured using MTT assays performed 72 h after infection, in comparison with mock-treated cultures (100%), and is inversely expressed as cell death rate. The data presented are means from 3 independent experiments carried out in quadruplicates.
as §2
Means and standard deviations (SD) were calculated from triplicate in vitro experiments. […] The isobologram was created from the data obtained for the combination of the two agents. […] CI=1 represents the conservation isobologram and indicates additive effects. CI values below 1 indicate higher than the expected additive effect (synergy).
Drug sensitivity of parental and resistant cells was assessed in both MTT and clonogenic survival assays.

Assay [1] deals with gemcitabine-resistant Panc-1 cells. The experiment in a line: MTT cytotoxicity 144 h, gemcitabine-resistant Panc-1. The settings on record: Panc-1R; gemcitabine 40 ng/ml for 144 h. On the procedure: as §2
Assay [2] relates to gemcitabine-resistant BxPC-3 cells. The assay is described as follows: MTT cytotoxicity 144 h, gemcitabine-resistant BxPC-3. The settings on record: BxPC-3R; gemcitabine 40 ng/ml for 144 h. The protocol: as §2

On to `Nc1ccn([C@@H]2O[C@H](CO)[C@@H](O)C2(F)F)c(=O)n1` [gemcitabine], for which the “SIGem (sensitization index) comb. 1” value with BxPC3 cells (EC50, H-1PV MOI 1) was found to be 1.3; in the assay with Colo357 cells (EC50, H-1PV MOI 1), 1.2; in the assay with MiaPaCa-2 cells, 1.7; in the assay on Panc-1 cells (EC50, H-1PV MOI 1), 2.0; with SU86.86 cells (EC75, H-1PV MOI 1) it was 2.1; in the assay with T3M-4 cells (EC75, H-1PV MOI 1), 1.0. Moreover, the “SIGem (sensitization index) comb. 2” value in the assay on BxPC3 cells (EC50, H-1PV MOI 10) came out at 3.6; with Colo357 cells (EC50, H-1PV MOI 10), 2.5; in the assay with Panc-1 cells (EC50, H-1PV MOI 10), 6.7; in the assay with SU86.86 cells (EC75, H-1PV MOI 10), 13.1; in the assay with T3M-4 cells (EC75, H-1PV MOI 10), 1.7. The “response of drug-resistant variant to extended incubation with gemcitabine” value in assay [1] and in assay [2] was “resisted” throughout.
